Values quoted from earlier work in US20190388350A1, “FORMULATION” (priority 2018, published 2019).

In the case of `CNCC[C@H](Oc1cccc2ccccc12)c1cccs1` [duloxetine hydrochloride], the pKa is listed as 9.7.

Counter-ions that a name gives are not always drawn.
